# scFv variants of Ab-14 (light chain) against a SARS-CoV-2 spike peptide

Target: peptide PDVDLGDISGINAS, taken from heptad repeat 2 (HR2) of SARS-CoV-2 spike.

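The parent was found by panning a naive human phage display library on the peptide. In library AAYL50, one, two or three CDR residues were substituted; doubles and triples were drawn at random. The scFvs were displayed on barcoded MATa yeast, the peptide on MATalpha yeast. The frequency of each diploid, read from paired DNA barcodes, reflects how well the two displayed proteins bind. The ratio of observed to expected reads was calibrated, replicate by replicate, on BCL2-family standards whose Kd was known from biolayer interferometry. The assay was run in three technical replicates.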

Each scFv is VH, three GGGGS repeats, VL, as in the parent Ab-14, and differs from it in the CDRs of the light chain only.
VH: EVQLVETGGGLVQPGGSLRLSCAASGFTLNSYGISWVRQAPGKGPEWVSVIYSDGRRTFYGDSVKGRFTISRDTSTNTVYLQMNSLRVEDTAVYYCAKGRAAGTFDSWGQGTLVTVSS
VL: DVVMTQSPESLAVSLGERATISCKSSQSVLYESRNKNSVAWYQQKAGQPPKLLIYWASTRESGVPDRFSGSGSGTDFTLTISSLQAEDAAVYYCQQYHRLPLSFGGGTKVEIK

Each variant is given by its three light chain CDRs, as the data file delimits them; those of the parent are KSSQSVLYESRNKNSVA, WASTRES, QQYHRLPLS. This list gathers variants with a substitution at H98 (VL, numbered from residue 1). Values are apparent Kd, the geometric mean of the replicates that gave a signal; lower means stronger binding. A pair that was not seen in any replicate is written "nd"; this usually means weak binding, but a binder can also be missed.

KSSQSVLYESRNKNSVA, WASTRES, QQEVRLRLS: nd (0 of 3 replicates; controls 4 of 9).
KSSQSVLYPSRNKNSVA, WASTRES, QQYWRLPLS: 100 nM (3 of 3 replicates; controls 0 of 9).
KSSQSVLYESRNTNSVA, WASTRES, QQYCQLPLS: 270 nM (3 of 3 replicates; controls 0 of 9).
KSSQRVLYESRNKRSVA, WASTRES, QQYARLPLS: 47 nM (3 of 3 replicates; controls 2 of 9).
KSSQSVLYESRNKNSVA, WASTRES, QPYGRLDLS: nd (0 of 3 replicates; controls 4 of 9).
KSSQSVLYESRFKNSYA, WASTRES, QQYFRLPLS: nd (0 of 3 replicates; controls 2 of 9).
KSSQSVLYESRNKNSVA, WASTRES, QQYNRLPLS: 5.1 nM (3 of 3 replicates; controls 4 of 9).
KSSQSVLYESRNMNSVA, WASTRES, QQRDRLPLS: 5.0 nM (3 of 3 replicates; controls 1 of 9).
KSSQSVLYESRNKNSVA, WASTRWS, QQYFRLPLS: 28 nM (3 of 3 replicates; controls 1 of 9).
KSSQSVLYESRNKNSVA, KAVTRES, QQYSRLPLS: 1.0 nM (3 of 3 replicates; controls 5 of 9).
KSSCSVLYESRNKNSVA, WASTRES, QQYERLPLC: 4.0 µM (1 of 3 replicates; controls 2 of 9).
KSSQSVLYESLNKNSVA, WASTRES, QQYWRLDLS: 3.2 nM (3 of 3 replicates; controls 1 of 9).
KSSQSVLYESYNKNNVA, WASTRES, QQYPRLPLS: 160 nM (1 of 3 replicates; controls 0 of 9).
KSSQPVLYESRNKNWVA, WASTRES, QQYARLPLS: 3.7 nM (3 of 3 replicates; controls 0 of 9).
KSSQDVLYESRNKNSVA, WASTRES, CQYTRLPLS: 3.4 µM (3 of 3 replicates; controls 3 of 9).
KVSQSVLYESRNKNSVA, WASTRES, QQYWRLPLS: 4.6 nM (3 of 3 replicates; controls 1 of 9).
KSSQSVLYESRNKNSVA, WAPTRES, QQRNRLPLS: nd (0 of 3 replicates; controls 3 of 9).
KSSQSVLVESQNKNSVA, WASTRES, QQYCRLPLS: 38 nM (3 of 3 replicates; controls 4 of 9).
KSSQSVLYESRNKNSVA, WASTRES, HQYTRLELS: 5.5 µM (1 of 3 replicates; controls 0 of 9).
KSSQSVLYESRNKNSVA, WASTRES, QKYSRLPLS: 14 nM (3 of 3 replicates; controls 3 of 9).
KSSQSVLYEWRNQNSVA, WASTRES, QQYLRLPLS: 16 nM (3 of 3 replicates; controls 4 of 9).
KSSQSVLYESRGKNSVA, WASTRES, QQYERLPLS: 8.4 nM (3 of 3 replicates; controls 1 of 9).
KSSQSVLYESRNKNSEA, WASTRES, QQYERNPLS: 8.3 µM (2 of 3 replicates; controls 2 of 9).
KSSQSVLYESENKNSVA, WASTRES, QQRGRLPLS: 6.1 nM (3 of 3 replicates; controls 3 of 9).
KSSQSWLYESRNKNSVA, WASTRES, QQYTRLPIS: 11 nM (3 of 3 replicates; controls 4 of 9).
KSSQSVLYYSRNKNSVA, WASTRES, QQYVRLFLS: nd (0 of 3 replicates; controls 1 of 9).
KWSQSVLYESRNKNSVA, WASTRES, QQYCSLPLS: 210 nM (3 of 3 replicates; controls 2 of 9).
KSSQSVLYESRNKNSEA, WASTRES, QQYTRLPLS: 1.7 µM (1 of 3 replicates; controls 0 of 9).
KSSQSVLYESRNRNSVA, WASTRES, QQYVRLPLA: 26 nM (3 of 3 replicates; controls 2 of 9).
KSSQSVVYESRNKNQVA, WASTRES, QQYPRLPLS: 250 nM (3 of 3 replicates; controls 4 of 9).
KSSQSVLYESRNKNSVA, WASRRES, QQYCRLPLS: 65 nM (3 of 3 replicates; controls 2 of 9).
KSSQSVLYEYRNKNSVA, WASYRES, QQYMRLPLS: 270 nM (3 of 3 replicates; controls 2 of 9).
KSSQSVLYESRNKNFVA, WASTRES, WQYTRLPLS: nd (0 of 3 replicates; controls 0 of 9).
KSSQSVLYESRNKNRVA, PASTRES, QQYTRLPLS: 78 µM (2 of 3 replicates; controls 8 of 9).
KSSQSVLYESRNKNSVA, WALTRES, QQHPRLPLS: 2.9 µM (3 of 3 replicates; controls 4 of 9).
KSSQSVLYEHPNKNSVA, WASTRES, QQYVRLPLS: 4.0 nM (3 of 3 replicates; controls 3 of 9).
KSSQSVLYESRNKNSVA, WASLREA, QQYSRLPLS: 3.4 nM (3 of 3 replicates; controls 3 of 9).
KSSQSVLYESRNKNVVA, WASVRES, QQYNRLPLS: nd (0 of 3 replicates; controls 0 of 9).
KSSQSVLYESRNANSVA, WASTRES, QQYNRLPVS: 5.7 nM (3 of 3 replicates; controls 5 of 9).
KSSQSVLYESRNKNSVA, WASTRQS, WQYFRLPLS: 140 nM (3 of 3 replicates; controls 3 of 9).
KSSQSVLYESRNKCSVA, WASVRES, QQYKRLPLS: nd (0 of 3 replicates; controls 1 of 9).
KSSQSVLYESRNKNSVA, WASTRES, PQYWKLPLS: 3.0 nM (3 of 3 replicates; controls 0 of 9).
KSGQSVLYESRNKNSVA, WMSTRES, QQYWRLPLS: nd (0 of 3 replicates; controls 0 of 9).
KSSQSVLYESRNKNSVN, WASTRES, QWYMRLPLS: nd (0 of 3 replicates; controls 0 of 9).
KSSQSVLYESTNKNSVA, WASTRES, QQYRRKPLS: nd (0 of 3 replicates; controls 0 of 9).
KSSQSVLYESYNKNSVD, WASTRES, QQYNRLPLS: nd (0 of 3 replicates; controls 1 of 9).
KSSQSVLYESRNKNSVA, CASTRES, QQLDRLPLS: 590 nM (3 of 3 replicates; controls 5 of 9).
KSSQSVLYESRNKNSVA, WASPRES, QQYYRLPRS: 270 µM (1 of 3 replicates; controls 0 of 9).
KSSQSVLYESRNKNSVA, WASTRES, QAYERLKLS: 330 µM (1 of 3 replicates; controls 1 of 9).
KSSQSVLYISRNKNSVA, WASTRES, QQYWRLPLS: 540 nM (3 of 3 replicates; controls 2 of 9).
KSSQSVVYESRNKNSVA, WASTRES, QQYPRCPLS: 12 nM (3 of 3 replicates; controls 1 of 9).
KSSQSVLYRSRNKNSVA, WASTRES, QQYQRLPLS: 350 nM (1 of 3 replicates; controls 0 of 9).

For reference, 5 entries of the list once more:

With KSSQSVLYESLNKNSVA, WASTRES, QQYWRLDLS the result was 3.2 nM (3 of 3 replicates; controls 1 of 9).
With KSSQSVLYESRNKNSVA, WASTRES, PQYWKLPLS the result was 3.0 nM (3 of 3 replicates; controls 0 of 9).
With KSSQSVVYESRNKNQVA, WASTRES, QQYPRLPLS the result was 250 nM (3 of 3 replicates; controls 4 of 9).
With KSSQSVLYESRNKNVVA, WASVRES, QQYNRLPLS the result was nd (0 of 3 replicates; controls 0 of 9).
With KSSQSVLYESRNMNSVA, WASTRES, QQRDRLPLS the result was 5.0 nM (3 of 3 replicates; controls 1 of 9).

Three control strains display no target. For library AAYL50, 18% of the pairings with them gave a signal, with a median of 15 µM and one signal in twenty below 970 nM, so weak values seen in few replicates may be background. Also given: how often the same scFv was detected with the empty control strains.

From the AlphaSeq antibody data of Engelhart et al. 2022 (doi:10.1038/s41597-022-01779-4), copy in the FLAb collection.